## Ab-95 light chain CDR variants: yeast mating affinities

The measurements come from Engelhart et al. 2022 (doi:10.1038/s41597-022-01779-4) through the FLAb antibody collection.

All variants were tested on one target, the spike HR2 peptide PDVDLGDISGINAS (SARS-CoV-2).

The variants keep the heavy chain, the linker and the frameworks of Ab-95 (scFv order VH, three GGGGS repeats, VL).
VH: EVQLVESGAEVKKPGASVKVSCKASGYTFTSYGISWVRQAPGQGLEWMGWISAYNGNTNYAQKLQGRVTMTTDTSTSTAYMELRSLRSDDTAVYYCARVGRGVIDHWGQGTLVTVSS
VL: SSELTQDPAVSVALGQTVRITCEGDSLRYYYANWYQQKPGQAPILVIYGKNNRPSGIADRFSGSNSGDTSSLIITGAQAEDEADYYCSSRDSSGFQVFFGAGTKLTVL

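The starting antibody came from a phage panning campaign against this peptide. Library AAYL52 holds single substitutions and randomly drawn double and triple substitutions in the CDRs. AlphaSeq pools MATa yeast showing the antibodies with MATalpha yeast showing the peptide. Mating (16 h, 30 °C) was followed by selection of diploids and sequencing of their barcodes. A regression on co-assayed BCL2-family reference pairs converts the normalised counts of each replicate to an apparent Kd. Mating was done three times.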

The parent's light chain CDRs are EGDSLRYYYAN, GKNNRPS, SSRDSSGFQVF; each variant's own CDRs replace them letter for letter.
Values are log10 of the apparent Kd in nM; lower means stronger binding.
A mean of the replicates is given; it leaves out those without a signal.
An entry "n.d." has no value in the source: the pair was not observed among the diploids in that replicate. This suggests poor binding but is not conclusive.
In this assay the parent's reference entry averaged 2.31; its copy inside this library read 2.25.
Empty control strains, which show no peptide, gave a signal in 28% of pairings with library AAYL52; the median was 3.91 and 95% of these signals were weaker than 2.90. No background was subtracted. The control count says in how many pairings with the empty strains this scFv gave a signal, with their mean in brackets.

CDR-L1 | CDR-L2 | CDR-L3 | log10 Kd, replicates | log10 Kd (nM), mean | signal with controls
EGDSLILYYAN | GKNNRPS | SSRDTSGFQVF | 3.47 3.84 3.00 | 3.44 | 3/9 (3.76)
WGTSLRYYYEN | GKNNRPS | SSRDSSGFQVF | n.d. n.d. n.d. | n.d. | 3/9 (3.44)
EGDCLRYYYAK | GKNNRPD | SSRDSSGFQVF | n.d. n.d. n.d. | n.d. | 2/9 (4.26)
NGDSLRYYYAN | GKNNRSS | SSRDSSGFQVR | 2.56 2.40 2.06 | 2.34 | 6/9 (3.47)
EGDWLRYYYAN | GKNERPS | SSRDSSGFKVF | n.d. n.d. n.d. | n.d. | 0/9
EGDSLRYYYAN | GKDNRPS | SSWDSSGFQVF | 3.80 3.02 n.d. | 3.41 | 2/9 (4.00)
EGISLRYYYAN | GKNNRPS | VSRDSSGFQAF | 4.67 n.d. n.d. | 4.67 | 1/9 (4.20)
EGDSLRYYYAN | GKNNYPS | SSRESSGFQVF | 4.47 3.00 3.37 | 3.61 | 4/9 (3.80)
EGDSLRYYYAN | GKNNRPS | SSRISDWFQVF | 2.97 2.06 3.55 | 2.86 | 0/9
QGDSLRYYYAN | GKNCRLS | SSRDSSGFQVF | 4.75 n.d. 4.63 | 4.69 | 3/9 (4.28)
EGCSLRYYYAN | GLNYRPS | SSRDSSGFQVF | n.d. n.d. 4.10 | 4.10 | 1/9 (4.30)
EGDSLRYYYAN | GKNNRDS | SSRDSSGIQVF | 3.55 3.66 n.d. | 3.60 | 4/9 (3.61)
EGDSLRYYYAN | GKNNMPS | SSRDSSGFILF | 3.56 4.84 3.68 | 4.03 | 7/9 (3.83)
PGDSLRYYYAN | GSNNRPS | ASRDSSGFQVF | 4.64 4.30 4.63 | 4.52 | 1/9 (4.17)
EGYSLRYYYCN | SKNNRPS | SSRDSSGFQVF | n.d. 3.93 n.d. | 3.93 | 6/9 (3.73)
EVASLRYYYAN | GKKNRPS | SSRDSSGFQVF | 3.69 3.42 2.51 | 3.20 | 3/9 (4.95)
EGDSLRYYYAN | PKNNRPS | SSYDSSGFQWF | n.d. n.d. 2.96 | 2.96 | 0/9
ECDSLRYYYAN | GKNNAPS | SSRDSSGFQVF | 3.55 5.49 4.28 | 4.44 | 5/9 (4.24)
EGDSLRYYYAN | GMGNRPG | SSRDSSGFQVF | 2.51 3.30 3.79 | 3.20 | 3/9 (3.27)
EGDPLRYYYAN | GKNDRPS | SSRDSSGFQPF | 2.74 3.07 3.15 | 2.99 | 5/9 (3.99)
EGDSLRYHYAN | GKNNRPS | SSLDSSGFQVM | 3.32 2.28 2.43 | 2.67 | 3/9 (4.32)
EGDSLNYYYAN | YYNNRPS | SSRDSSGFQVF | 3.63 n.d. n.d. | 3.63 | 0/9
EGDSLRHYYAN | GKNNRPS | SSRDSSGFQWT | n.d. n.d. n.d. | n.d. | 0/9
EGDSLMYYYAN | GKNLRPS | SSRDSSGFEVF | 1.32 1.42 0.86 | 1.20 | 3/9 (3.18)
EGDSLRYYYAN | GVNNRLS | SSRDSSGFQVL | 2.16 2.50 1.68 | 2.11 | 3/9 (3.58)
EGDSERYYYAN | GKNVRRS | SSRDSSGFQVF | 3.69 n.d. n.d. | 3.69 | 4/9 (4.45)
EGDSERYYYAS | GKNNRPS | STRDSSGFQVF | 3.36 3.98 4.46 | 3.93 | 3/9 (3.13)
EVDSVRYYYAN | GKNNRLS | SSRDSSGFQVF | 3.12 3.17 2.72 | 3.00 | 4/9 (4.06)
EGDSLHYYYAN | WKNNRPS | SSRNSSGFQVF | n.d. n.d. n.d. | n.d. | 1/9 (3.35)
EGDSLRYYYAN | GKHNRPL | SSRDSSGFCVF | 4.25 4.35 4.48 | 4.36 | 4/9 (4.05)
ELDSLRYYIAN | GKNNRPS | SSRDSSGFQVF | 2.53 3.26 2.62 | 2.80 | 3/9 (3.97)
EGRFLRYYYAN | GKNNRPS | SSRPSSGFQVF | n.d. n.d. n.d. | n.d. | 1/9 (3.61)
EGDSLRYYYAH | GKNNRPS | SSRDSSGFQHF | 2.09 2.56 2.45 | 2.37 | 4/9 (4.08)
EPDSLRSNYAN | GKNNRPS | SSRDSSGFQVF | 2.87 2.65 2.76 | 2.76 | 6/9 (4.43)
EGDSKRYYYAN | GKNNRPA | SSRDSSLFQVF | n.d. n.d. n.d. | n.d. | 1/9 (4.37)
EGDSLRYYYAN | GKNRRPC | SSRYSSGFQVF | 3.89 3.98 3.75 | 3.87 | 3/9 (3.81)
EGDSRRYFYAN | WKNNRPS | SSRDSSGFQVF | 5.50 n.d. n.d. | 5.50 | 2/9 (3.74)